Apparent affinities of Ab-14 variants for a coronavirus HR2 peptide

Data: MIT Lincoln Laboratory AlphaSeq set, Li et al. 2023, doi:10.1038/s41467-023-39022-2, as distributed in FLAb.

All variants were tested on one target, the spike HR2 peptide PDVDLGDISGINAS (SARS-CoV-2).

Ab-14 is the parent antibody, in scFv form: VH, then the linker GGGGSGGGGSGGGGS, then VL. The heavy chain is unchanged in all variants.
VH: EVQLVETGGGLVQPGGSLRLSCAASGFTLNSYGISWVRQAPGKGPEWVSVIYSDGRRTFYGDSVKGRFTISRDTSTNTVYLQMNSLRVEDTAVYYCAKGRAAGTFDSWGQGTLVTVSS
VL: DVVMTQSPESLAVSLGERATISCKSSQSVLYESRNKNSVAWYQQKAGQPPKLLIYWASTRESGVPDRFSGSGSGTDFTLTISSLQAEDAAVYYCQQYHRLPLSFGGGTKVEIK

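The parent was found by panning a naive human phage display library on the peptide. This is the validation round: designs drawn from the data on random variants, tested in the same kind of assay. Their group label is 14L_En_Gibbs (En: ensemble of fine-tuned language models; Gibbs: Gibbs sampling). The assay is AlphaSeq: two haploid yeast populations carry antibody and antigen on their surface. Pairs that bind mate more often; barcode pairs of the diploids are counted by sequencing. Read counts were normalised to the haploid input and turned into Kd by a linear fit to BCL2-family pairs of known affinity, for each replicate. There are six technical replicates.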

The whole VL of each variant is written out. The read-out is the apparent dissociation constant on a log10 scale (nM): the lower, the stronger. "n.d." means that the variant was in the library but no mating with the target was seen in that replicate; the authors take this as a sign of poor binding, and no number exists. The authors' rule: three or more of the six replicates give a measured affinity, fewer mean a poor binder. A sequence measured in both rounds can read differently, since the two assays cover different ranges. The parent sequence was in this pool as ten entries: three were never detected, three once, and four in most replicates, with averages from 0.34 to 2.37. Three control strains display no target. For all light chain designs, 4% of the pairings with them gave a signal, with a median of 2.64 and one signal in twenty below 1.59, so weak values seen in few replicates may be background. Also given: how often the same scFv was detected with the empty control strains, with their mean in brackets.

{"VL": "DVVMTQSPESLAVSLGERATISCKVSDPMVEWYANQSAVAWYQQKAGQPPKLLIYEHAEAQHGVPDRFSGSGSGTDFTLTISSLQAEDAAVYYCQQYDRLPLSFGGGTKVEIK", "log10 Kd, replicates": "n.d. n.d. n.d. 3.17 n.d. n.d.", "signal with controls": "0/18"}
{"VL": "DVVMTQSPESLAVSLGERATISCQLDWYNTTATASANNVAWYQQKAGQPPKLLIYDVAQRMNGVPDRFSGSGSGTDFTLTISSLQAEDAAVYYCQQYMRLPLMFGGGTKVEIK", "log10 Kd, replicates": "0.20 0.02 -0.11 -0.08 -0.08 0.22", "signal with controls": "1/18 (1.92)"}
{"VL": "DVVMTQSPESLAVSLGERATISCKLQWQQYGENAMEAAIAWYQQKAGQPPKLLIYNEGTTHQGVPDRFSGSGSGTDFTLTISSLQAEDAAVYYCQQYSMLPLTFGGGTKVEIK", "log10 Kd, replicates": "n.d. 1.48 2.05 n.d. n.d. n.d.", "signal with controls": "0/18"}
{"VL": "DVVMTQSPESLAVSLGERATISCNLQNGGSELSVWKRNIAWYQQKAGQPPKLLIYDANIRESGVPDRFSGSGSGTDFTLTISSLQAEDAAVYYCQQYFRLPLLFGGGTKVEIK", "log10 Kd, replicates": "0.17 0.00 -0.14 -0.21 -0.11 -0.07", "signal with controls": "3/18 (3.71)"}
{"VL": "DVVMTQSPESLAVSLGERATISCHSSPSVLYDSRNKNHVAWYQQKAGQPPKLLIYNASTRESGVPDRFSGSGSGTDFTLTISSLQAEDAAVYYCQQYHRLPLSFGGGTKVEIK", "log10 Kd, replicates": "0.54 0.37 0.20 0.20 0.20 0.37", "signal with controls": "4/18 (3.04)"}
{"VL": "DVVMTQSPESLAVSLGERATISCDLPMKELQMSENTNNVAWYQQKAGQPPKLLIYDSEQKMKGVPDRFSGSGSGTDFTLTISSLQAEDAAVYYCQQYSRLPLMFGGGTKVEIK", "log10 Kd, replicates": "-0.38 -0.56 -0.73 -0.54 -0.64 -0.63", "signal with controls": "0/18"}
{"VL": "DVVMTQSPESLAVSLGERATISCKLESLMGESYAEKENIAWYQQKAGQPPKLLIYEGEQRFSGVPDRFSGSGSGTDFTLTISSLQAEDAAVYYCQQYVRLPLHFGGGTKVEIK", "log10 Kd, replicates": "1.50 1.55 2.68 2.61 3.10 1.36", "signal with controls": "0/18"}
{"VL": "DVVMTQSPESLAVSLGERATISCALALTGHQVDSQMQNIAWYQQKAGQPPKLLIYDGMLRESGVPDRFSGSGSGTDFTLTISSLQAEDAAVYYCQQYNRLPLTFGGGTKVEIK", "log10 Kd, replicates": "0.59 1.44 n.d. -0.07 0.08 0.53", "signal with controls": "1/18 (1.07)"}
{"VL": "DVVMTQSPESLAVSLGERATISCSMYPFDVAIGEGTQNVAWYQQKAGQPPKLLIYHVSVRALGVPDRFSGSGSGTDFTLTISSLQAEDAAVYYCQQYDRLPLVFGGGTKVEIK", "log10 Kd, replicates": "1.30 1.37 2.02 2.10 1.69 1.92", "signal with controls": "2/18 (2.75)"}
{"VL": "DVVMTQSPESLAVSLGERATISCKIRVHNLMFYQNESSIAWYQQKAGQPPKLLIYGQSNRSEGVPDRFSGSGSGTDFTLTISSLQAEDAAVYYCQQYYHLPLTFGGGTKVEIK", "log10 Kd, replicates": "n.d. n.d. 2.57 1.53 2.12 1.42", "signal with controls": "0/18"}
{"VL": "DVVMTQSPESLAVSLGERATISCKINERMRSGENSQHSIAWYQQKAGQPPKLLIYNATEIVHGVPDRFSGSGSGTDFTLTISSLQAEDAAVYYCQQYHNLPLGFGGGTKVEIK", "log10 Kd, replicates": "1.14 1.51 1.06 1.37 1.63 2.05", "signal with controls": "3/18 (3.45)"}
{"VL": "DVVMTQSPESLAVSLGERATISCKLAQGIYEPVRKSHNIAWYQQKAGQPPKLLIYEASHVCDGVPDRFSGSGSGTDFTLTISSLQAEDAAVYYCQQYERLPLEFGGGTKVEIK", "log10 Kd, replicates": "0.55 0.12 0.26 0.05 0.00 0.14", "signal with controls": "1/18 (2.26)"}
{"VL": "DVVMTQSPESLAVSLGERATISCNFSMALEDMDVKTKSIAWYQQKAGQPPKLLIYENQLTEYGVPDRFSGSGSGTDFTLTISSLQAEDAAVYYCQQYAKLPLMFGGGTKVEIK", "log10 Kd, replicates": "1.91 1.18 1.22 2.03 1.58 1.96", "signal with controls": "1/18 (2.30)"}
{"VL": "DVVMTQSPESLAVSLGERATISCNIDQQRSYQDGRERAIAWYQQKAGQPPKLLIYDASIRQDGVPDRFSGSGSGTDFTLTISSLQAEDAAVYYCQYYNRLPLVFGGGTKVEIK", "log10 Kd, replicates": "1.45 0.77 1.50 1.42 0.68 1.47", "signal with controls": "2/18 (2.73)"}
{"VL": "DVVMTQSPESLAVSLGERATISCTLYMGPTEARDSKHAIAWYQQKAGQPPKLLIYDNNERDRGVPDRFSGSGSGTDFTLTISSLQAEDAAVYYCQQYHRLPLYFGGGTKVEIK", "log10 Kd, replicates": "0.75 1.39 0.60 0.66 1.28 1.29", "signal with controls": "0/18"}

2 of these entries, quoted again:

{"VL": "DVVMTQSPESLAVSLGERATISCKLESLMGESYAEKENIAWYQQKAGQPPKLLIYEGEQRFSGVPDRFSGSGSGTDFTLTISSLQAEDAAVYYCQQYVRLPLHFGGGTKVEIK", "log10 Kd, replicates": "1.50 1.55 2.68 2.61 3.10 1.36", "signal with controls": "0/18"}
{"VL": "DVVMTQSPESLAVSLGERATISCNFSMALEDMDVKTKSIAWYQQKAGQPPKLLIYENQLTEYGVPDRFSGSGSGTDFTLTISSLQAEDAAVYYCQQYAKLPLMFGGGTKVEIK", "log10 Kd, replicates": "1.91 1.18 1.22 2.03 1.58 1.96", "signal with controls": "1/18 (2.30)"}